Shown are actives, neighbours in structure and some others; about 2.5% of the full set was active somewhere.
TrxR1 substrate: is turned over as a substrate by rat TrxR1. O89049. purified TrxR1 substrate turnover, NADPH consumption readout. Potency, µM (highest dose often 114 µM), for the others: at the highest dose activity change, negative = substrate turnover. actives 0.01% (n = 390,000); note: potency is the fitted concentration of half-maximal effect; % is set by controls: 0 for no effect and ±100 for the full control effect; nearly all actives have a fitted effect of over 50% in size
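Rat TrxR1, dispensed at 90 nM, was prereduced with 400 uM NADPH (final) for 5 min at ~22 deg C, then incubated with compound 15 min before 400 uM selenite. A first-read NADPH fluorescence drop versus no-compound background flagged substrates.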
TrxR1 inh: rat TrxR1 inhibition; O89049; recombinant rTrxR1, NADPH fluorescence consumption, selenite substrate; Potency, µM (top dose mostly 114 µM), without a hit: top-dose activity change, negative = inhibition, most hits filed as inhibitors; actives 1% (n = 390,000); note: potency is the fitted concentration of half-maximal effect; % is set by controls: 0 for no effect and ±100 for the full control effect; nearly all actives have a fitted effect of over 65% in size
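Rat TrxR1 (90 nM in the dispensed reagent) was pre-reduced with 400 uM NADPH for 5 min at room temperature, then incubated with compound for 15 min. After 400 uM selenite was added, NADPH fluorescence (Ex 340/Em 450 nm) was followed for 8 min.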
Apoferritin bind: candidate novel general anesthetic via apoferritin binding | AID 485281 | P02791 | Potency, µM (series often up to 77.5 µM), for inactives: at the top dose activity change, negative = displacement, most hits filed as inhibitors | apoferritin/1-aminoanthracene competitive binding, fluorescence | actives 0.074% (n = 350,000); note: potency is the fitted concentration of half-maximal effect; % is set by controls: 0 for no effect and ±100 for the full control effect; nearly all actives have a fitted effect of over 20% in size
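Horse-spleen apoferritin (10 uM) was mixed with 50% saturated 1-aminoanthracene in PBS, exposed to compounds for 10 min at room temperature, and read for fluorescence (ex 380 nm, em 535 nm). Competitive displacement was fitted with a four-parameter Hill equation.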
ClpP mod: qHTS Assay for Activators of ClpP; purified B. subtilis ClpP, FRET peptide cleavage, 20 min; ATP-dependent Clp protease proteolytic subunit (Bacillus subtilis (strain 168)), P80244; actives 1.9% (n = 340,000); Potency, µM (top dose mostly 57.5 µM), for the others: at the highest dose activity change, negative = active; active = well fitted falling curve with a large enough effect; inconclusive = small, poorly fitted or top-dose-only effect; inactive = no such curve, though single readings can be large or run the other way; note: potency is the fitted concentration of half-maximal effect; the source files actives as falling curves though it sought activators and does not explain the sign; nearly all actives have a fitted effect of over 65% in size
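FRET quenching reversal measured ClpP activation: 10 microg/mL B. subtilis ClpP at pH 8 with the FRET-FV decapeptide, read at 430 nm after 320 nm excitation. The 20-min minus 0-min signal was scaled between DMSO/no-enzyme wells and ADEP (5.8 microM final).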
miR-21 reporter: raises the signal of a miR-21 reporter | HeLa miR-21 FLuc reporter, luciferase, 48 h | Potency, µM (doses to about 38.3 µM), for the others: at the highest dose reporter change, positive = more light | 340,000 tested, under 10 active | AID 2288; active = well fitted rising curve with a large enough effect; inconclusive = small, poorly fitted or top-dose-only effect; inactive = no such curve, though single readings can be large or run the other way;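 also: % of control where 0% means no effect; miR-21 action dims this reporter so a rising signal means less miR-21 action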
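HeLa cells endogenously expressing miR-21, stably carrying CMV-driven firefly luciferase with a downstream miR-21 binding site, 2000 cells/well. Titrations up to approximately 40 uM, 48 hours; luciferase luminescence read.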
The depositor's hits bear a star; u = inconclusive; x = no result given; [ ] = remark or other dose. Unless noted, calls come from the whole dose curve; as a rule, active = well fitted curve in the direction sought with a large enough effect; inconclusive = small, poorly fitted or top-dose-only effect, or another doubt; inactive = no such curve, though single readings can be large; an effect the other way counts as inactive or inconclusive.

Chains of the proteins cited; added tags and fusions are not shown.
ATP-dependent Clp protease proteolytic subunit (Bacillus subtilis (strain 168)), P80244, UniProt P80244, whole entry, looked up: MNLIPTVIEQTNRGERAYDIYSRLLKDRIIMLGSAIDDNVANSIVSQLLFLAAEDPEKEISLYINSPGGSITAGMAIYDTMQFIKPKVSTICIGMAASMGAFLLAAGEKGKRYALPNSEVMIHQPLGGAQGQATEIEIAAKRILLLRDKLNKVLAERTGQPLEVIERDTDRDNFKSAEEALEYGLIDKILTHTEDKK

Start of the listing, in advance (2 entries):
SMILES	TrxR1 substrate	TrxR1 inh	Apoferritin bind	ClpP mod	miR-21 reporter
Cc1oc(-c2ccc(C(=O)Nc3cc(F)ccc3F)cc2)nc1COc1ccccc1	-3%	-2%	1%	-1%	-4%
CCOc1cc(C2c3c(-c4cc(C)ccc4O)n[nH]c3C(=O)N2CCCOC(C)C)ccc1O (stereo not drawn)	-11%	3%	-9%	-4%	1%

This part in full (from the top)
SMILES	TrxR1 substrate	TrxR1 inh	Apoferritin bind	ClpP mod	miR-21 reporter
Cc1oc(-c2ccc(C(=O)Nc3cc(F)ccc3F)cc2)nc1COc1ccccc1	-3%	-2%	1%	-1%	-4%
CCOc1cc(C2c3c(-c4cc(C)ccc4O)n[nH]c3C(=O)N2CCCOC(C)C)ccc1O (stereo not drawn)	-11%	3%	-9%	-4%	1%
CCCCC1=CC2=C(c3ccco3)C(=O)C(C)(OC(=O)c3ccc(OC)cc3)C(=O)C2=CN1CC(C)C (stereo not drawn)	4%	45µM*	-2%	0%	5%
COc1cccc(N2C(=O)C(CC(=O)Nc3ccc(Cl)cc3)N(Cc3ccc4c(c3)OCO4)C2=O)c1 (stereo not drawn)	-4%	16%	-10%	0%	10%
O=C(CC(NC(=O)c1ccccc1)c1ccccc1)OCc1nc(-c2cccc(Cl)c2)no1 (stereo not drawn)	5%[0.0914 µM]	14%	x	2%	x
COc1cc2c(cc1OC)C(CCc1ccccc1)=NCC2	369%	89µM*	258%	x	-9%
COc1cc2c(cc1OC)C(c1c(Cl)cccc1Cl)=NCC2	x	x	x	-3%	x
Cc1ccc(NC(=O)CSc2nccn2C2CCCC2)cc1	2%[57.1 µM]	7%[57.1 µM]	-13%	0%	-1%
COc1ccccc1/C=C/C(=O)/C=C/c1ccccc1O	-2%[57.1 µM]	-1%[57.1 µM]	-2%	2%	u
COc1ccccc1/C=C/C(=O)OC(C)CN1CCOCC1 (stereo not drawn)	32%	-1%	-9%	32µM*	-8%
COc1ccccc1C=CC(=O)C=Cc1ccccc1OC	7%[57.1 µM]	0%[11.4 µM]	x	28µM*	x
CNc1ccc(Br)cc(C(=O)/C=C/c2cccc(Cl)c2Cl)c1=O	5%	11µM*	-10%	0%	-6%
CNc1ccccc(C(=O)/C=C/c2ccccc2OC)c1=O	-11%	8.9µM*	2%	2%	-2%
CCn1c(CSc2nc3ccccc3[nH]2)nc2cc(C(=O)O)ccc21	57%	19%	67%	35µM*	-2%
CCn1c(CSc2nccn2C)nc2cc(C(=O)O)ccc21	9%	10%	-7%	-29%	5%
Cc1cc(-c2ccc(C)c(S(=O)(=O)Nc3cccc(C)n3)c2)on1	2%[57.1 µM]	-2%[57.1 µM]	-5%	32µM*	-5%
Cc1cccc(NS(=O)(=O)c2cccs2)n1	30%	-2%	-7%	20µM*	-1%
Cc1ccnc(NS(=O)(=O)c2cc(-c3cc(C)no3)ccc2C)c1	3%[57.1 µM]	18%[57.1 µM]	-3%	-27%	-10%
CCN1CCc2c(sc(NC(=S)NC(=O)c3cccc(F)c3)c2C(N)=O)C1	-5%	-10%	x	u	x
Cn1ncc(Cl)c1C(=O)N1CCN(c2ccc(Cl)c(Cl)c2)CC1	-4%	8%	-15%	16µM*	9%
Brc1ccc(-c2cn3c(n2)CCc2ccc4cccnc4c2-3)cc1	35%	12%	-5%	28µM*	2%
O=C(NC1C2CC3CC(C2)CC1C3)c1ccc2c(c1)OCO2 (stereo not drawn)	-4%	3%[57.1 µM]	u	20µM*	-35%
Cc1ccccc1OCCNC(=O)CNC(=O)c1ccccc1O	30%	4%	-2%	28µM*	-9%
COCC(=O)NNC(=O)c1ccccc1OC	2%[57.1 µM]	18%[57.1 µM]	-4%	x	-2%
COc1ccccc1C(=O)NCCC(=O)NNC(=O)c1ccccc1O	18%	-6%	x	25µM*	x
COc1ccccc1OCC(=O)NCCSCc1ccccc1Cl	-16%	-10%	-2%	0%	-28%
COc1ccccc1C(=O)NCCSCc1ccccc1Cl	-8%	3%[57.1 µM]	-24%	7.1µM*	-36%
Cc1cc(N2CCOCC2)n2nc(-c3cccc(F)c3)cc2n1	79%	36%	-2%	u	-23%
CCC1CCCCN1c1cc(C)nc2cc(-c3cccc(C)c3)nn12 (stereo not drawn)	18%	66%[57.1 µM]	32%	28µM*	-1%
CCC1CN(C(=O)N2CCC(C(=O)NCCN(CC)CC)CC2)c2ccccc2O1 (stereo not drawn)	-1%	27%	5%	-2%	18%

An excerpt from above in order of number of heavy atoms, descending:
SMILES	TrxR1 substrate	TrxR1 inh	Apoferritin bind	ClpP mod	miR-21 reporter
CCC1CN(C(=O)N2CCC(C(=O)NCCN(CC)CC)CC2)c2ccccc2O1 (stereo not drawn)	-1%	27%	5%	-2%	18%
COc1ccccc1C(=O)NCCC(=O)NNC(=O)c1ccccc1O	18%	-6%	x	25µM*	x
Cc1ccnc(NS(=O)(=O)c2cc(-c3cc(C)no3)ccc2C)c1	3%[57.1 µM]	18%[57.1 µM]	-3%	-27%	-10%
COCC(=O)NNC(=O)c1ccccc1OC	2%[57.1 µM]	18%[57.1 µM]	-4%	x	-2%

The list continues:
SMILES	TrxR1 substrate	TrxR1 inh	Apoferritin bind	ClpP mod	miR-21 reporter
O=c1nc(-c2ccccc2)cc(-c2ccccc2)[nH]1	35%[57.1 µM]	14%[57.1 µM]	-11%	28µM*	-16%
O=C(CNC(=S)N(Cc1ccccc1)Cc1cccnc1)NC1CCCC1	-2%	3%	-3%	-2%	-8%
O=C(CNC(=S)N(Cc1ccccc1)Cc1cccnc1)NC1CC1	17%[57.1 µM]	10%	-12%	25µM*	-10%
O=C(Cc1ccc(OCCC2CCCCC2)cc1)NO	-11%	-14%	x	-4%	x
C[C@@H]1[C@H](c2ccccc2)OCCS(=O)(=O)N1Cc1ccccc1Br	1%	28%	x	-5%	x
O=[N+]([O-])c1ccc(N2CCCC2)c([N+](=O)[O-])c1	x	x	x	0%	x
CS(=O)(=O)N1CCN(/[N+]([O-])=N/Oc2ccc([N+](=O)[O-])cc2[N+](=O)[O-])CC1 (tested in a mixture with another compound)	5%	11µM*	x	x	x
CS(=O)(=O)N1CCN(/[N+]([O-])=N/Oc2ccc([N+](=O)[O-])cc2[N+](=O)[O-])CC1	-3%	8.9µM*	x	x	x
O=[N+]([O-])c1ccc(O/N=[N+](\[O-])N2CCCC2)c([N+](=O)[O-])c1	-7%	18µM*	x	x	x
CCC(C)NC(=O)C1CCN(C(=O)c2ccc(-n3ccc4ccccc43)s2)CC1 (stereo not drawn)	2%[57.1 µM]	8%[57.1 µM]	-10%	-23%	-19%
CC(C)Oc1ccc(CNC(=O)c2sc3ncccc3c2-n2cccc2)cc1	-5%[57.1 µM]	11%[57.1 µM]	u	0%	2%
Cc1ccc(C2CC(=O)N(Cc3ccccc3)c3c2c(C)nn3-c2nc(C)cc(C)n2)cc1 (stereo not drawn)	0%	20%	-4%	1%	-1%
CC(C)(C)OC(=O)N1CCC(c2c(C(=O)NC3CCCCC3)cnn2-c2cccc(Cl)c2)CC1	-8%	13%	-1%	-2%	11%
CCC(=O)N1CCc2cc(S(=O)(=O)NC(Cc3ccccc3)C(=O)Nc3ccc(Cl)cc3)ccc21 (stereo not drawn)	3%	8%	4%	-1%	0%
NCCCCCCC(O)(P(=O)(O)O)P(=O)(O)O	x	x	4%	x	x
COc1ccc(S(=O)(=O)c2c(O)c3ccc(C(=O)NCc4ccccc4)cc3[nH]c2=O)cc1	-7%	4%	6%	u	3%
CCc1ccc(-n2nc(CO)c(C(=O)NCc3ccccn3)n2)cc1	94%	41%	-4%	14µM*	7%
CCOc1ccc(-n2nc(CO)c(C(=O)NCc3ccccn3)n2)cc1	177%	34%	-7%	11µM*	8%
N#CC1=C(N)SC(N)=C(C#N)C1Cc1ccccc1	8%	u	-16%	-22%	-1%
